These results are taken from PMC11505200, “Exploring the 3,5-Dibromo-4,6-dimethoxychalcones and Their Flavone Derivatives as Dual α-Glucosidase and α-Amylase Inhibitors with Antioxidant and Anticancer Potential” (Antioxidants, 2024).

Amino acid sequences for entries named in this document (tags omitted). A change or cut given only in a name is not applied to a line headed by its entry.
UniProt P53341: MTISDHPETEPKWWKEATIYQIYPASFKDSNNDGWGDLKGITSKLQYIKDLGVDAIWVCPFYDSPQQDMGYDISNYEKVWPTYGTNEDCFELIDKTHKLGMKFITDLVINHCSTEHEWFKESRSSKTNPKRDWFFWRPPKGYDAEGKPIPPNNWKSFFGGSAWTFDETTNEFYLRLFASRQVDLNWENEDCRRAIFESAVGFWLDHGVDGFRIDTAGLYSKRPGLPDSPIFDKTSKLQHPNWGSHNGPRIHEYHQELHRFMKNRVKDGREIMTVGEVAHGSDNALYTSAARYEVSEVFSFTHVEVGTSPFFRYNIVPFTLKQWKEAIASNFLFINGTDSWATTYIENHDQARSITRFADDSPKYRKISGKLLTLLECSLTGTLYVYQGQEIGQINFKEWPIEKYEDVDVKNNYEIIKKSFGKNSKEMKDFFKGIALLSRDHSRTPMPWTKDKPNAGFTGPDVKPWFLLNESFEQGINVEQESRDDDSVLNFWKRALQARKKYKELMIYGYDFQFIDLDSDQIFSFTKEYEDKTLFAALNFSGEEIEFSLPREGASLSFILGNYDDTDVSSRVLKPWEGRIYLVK

Structures are written as SMILES.

This assay concerns the target T1, α-glucosidase type 1 from Saccharomyces cerevisiae (Saccharomyces cerevisiae, UniProt P53341).
T1 construct: purchased Merck Life Science (Pty) Ltd. (Sigma-Aldrich) G5003
It is filed as biochemical. The note with it: ratio of α-glucosidase to α-amylase IC50. The procedure:
The assays and analyses were performed in triplicates following a method described in a previous study. […] A solution of α-glucosidase type 1 from Saccharomyces cerevisiae (0.48 u/mL, 17 μL), 100 mM phosphate buffer (pH 6.8; 50 μL) and the test sample in DMSO (17 μL) were incubated at 37 °C for 10 min. This pre-incubation was followed by addition of 2 mM p-nitrophenyl-α-D-glucopyranoside (PNP-G, 17 μL) to each of the wells containing reaction mixtures to initiate the reaction. The plate was then incubated for 30 min. at 37 °C. The five absorbance readings were recorded at a wavelength of 405 nm for each triplicate run using a Varioskan flash microplate spectrophotometer (Thermo Scientific, Waltham, MA, USA). The average values obtained from the readings were used to determine the IC50 and standard deviation values. The values were calculated by the nonlinear regression analysis using the Graph Pad Prism version 8.0.1 software (San Diego, CA, USA) and expressed as the mean SD of three distinct experiments.

Turning to `COc1c(Br)c(OC)c2c(=O)cc(-c3ccc(Cl)cc3)oc2c1Br` [3c, 6,8-Dibromo-2-(4-chlorophenyl)-5,7-dimethoxy-4H-chromen-4-ONE], the “selectivity index (SI = IC50(α-glucosidase)/IC50(α-amylase))” value is given as 0.13. For the molecule `COc1c(Br)c(OC)c2c(=O)cc(-c3ccc(C)cc3)oc2c1Br` [3e, 6,8-Dibromo-5,7-dimethoxy-2-(p-tolyl)-4H-chromen-4-one], the “selectivity index (SI = IC50(α-glucosidase)/IC50(α-amylase))” value came out at 0.43.
